Data published in the NIST ThermoML archive (doi:10.1016/j.jct.2015.02.007).

Experiment: xn = mol fraction of the nth substance listed
Settings: 100 kPa, Liquid; for mass density: Vibrating tube method; for speed of sound: Pulse-echo method

OCCOCCOCCOCCO [tetraethylene glycol] + O
Settings	mass density [kg/m3]	speed of sound [m/s]
313.15 K, x1 = 1	1107.98	–
318.15 K, x1 = 0.0003	–	1537.8
318.15 K, x1 = 0.0005	–	1538.8
318.15 K, x1 = 0.0011	–	1541.1
318.15 K, x1 = 0.0019	–	1544
318.15 K, x1 = 0.0033	–	1549.3
318.15 K, x1 = 0.0051	–	1555.9
318.15 K, x1 = 0.0077	–	1565.3
318.15 K, x1 = 0.011	–	1576.2
318.15 K, x1 = 0.0116	1006.25	–
318.15 K, x1 = 0.0144	–	1587.1
318.15 K, x1 = 0.0179	–	1597.3
318.15 K, x1 = 0.0203	1016.43	–
318.15 K, x1 = 0.0216	–	1607.7
318.15 K, x1 = 0.0258	–	1618.5
318.15 K, x1 = 0.0298	–	1627.8
318.15 K, x1 = 0.0334	–	1635.5
318.15 K, x1 = 0.0373	–	1643.2
318.15 K, x1 = 0.0406	1035.93	–
318.15 K, x1 = 0.042	–	1651.6
318.15 K, x1 = 0.0468	–	1659.3
318.15 K, x1 = 0.0494	–	1663
318.15 K, x1 = 0.0513	–	1665.5
318.15 K, x1 = 0.0541	–	1669.1
318.15 K, x1 = 0.0562	–	1671.7
318.15 K, x1 = 0.059	–	1674.7
318.15 K, x1 = 0.0605	1050.29	–
318.15 K, x1 = 0.0617	–	1677.5
318.15 K, x1 = 0.0647	–	1680.2
318.15 K, x1 = 0.0682	–	1683.1
318.15 K, x1 = 0.0722	–	1686.1
318.15 K, x1 = 0.077	–	1689
318.15 K, x1 = 0.078	–	1689.6
318.15 K, x1 = 0.0806	1061.25	–
318.15 K, x1 = 0.082	–	1691.5
318.15 K, x1 = 0.0847	–	1692.7
318.15 K, x1 = 0.0852	–	1692.8
318.15 K, x1 = 0.0878	–	1693.7
318.15 K, x1 = 0.0893	–	1694.2
318.15 K, x1 = 0.091	–	1694.7
318.15 K, x1 = 0.0928	–	1695.1
318.15 K, x1 = 0.0946	–	1695.5
318.15 K, x1 = 0.095	–	1695.6
318.15 K, x1 = 0.0975	–	1696
318.15 K, x1 = 0.0993	–	1696.3
318.15 K, x1 = 0.1013	–	1696.5
318.15 K, x1 = 0.1024	1070.29	–
318.15 K, x1 = 0.1068	–	1696.8
318.15 K, x1 = 0.1071	–	1696.8
318.15 K, x1 = 0.1174	–	1696.3
318.15 K, x1 = 0.1339	–	1693.3
318.15 K, x1 = 0.1511	1083.25	–
318.15 K, x1 = 0.1514	–	1688.2
318.15 K, x1 = 0.1626	–	1684.1
318.15 K, x1 = 0.1741	–	1679.7
318.15 K, x1 = 0.1879	–	1674.1
318.15 K, x1 = 0.2006	1090.51	–
318.15 K, x1 = 0.2091	–	1665.3
318.15 K, x1 = 0.23	–	1656.9
318.15 K, x1 = 0.2494	–	1649.3
318.15 K, x1 = 0.25	1094.72	–
318.15 K, x1 = 0.2715	–	1641.2
318.15 K, x1 = 0.2962	–	1632.8
318.15 K, x1 = 0.3012	1097.4	–
318.15 K, x1 = 0.3232	–	1624.4
318.15 K, x1 = 0.366	–	1612.6
318.15 K, x1 = 0.4024	1100.31	–
318.15 K, x1 = 0.416	–	1600.5
318.15 K, x1 = 0.4896	–	1585.7
318.15 K, x1 = 0.4964	1101.74	–
318.15 K, x1 = 0.5655	–	1573.5
318.15 K, x1 = 0.5985	1102.66	–
318.15 K, x1 = 0.6606	–	1562.4
318.15 K, x1 = 0.7018	1103.22	–
318.15 K, x1 = 0.759	1103.41	–
318.15 K, x1 = 0.7639	–	1554.2
318.15 K, x1 = 0.8201	1103.57	–
318.15 K, x1 = 0.8353	1103.61	–
318.15 K, x1 = 0.8804	1103.7	–
318.15 K, x1 = 0.8853	–	1546.5
318.15 K, x1 = 0.9237	1103.79	–
318.15 K, x1 = 0.9479	–	1542.2
318.15 K, x1 = 0.9719	1103.92	–
318.15 K, x1 = 0.9817	–	1539.8
318.15 K, x1 = 1	1104.01	1538.5
323.15 K, x1 = 0.0116	1003.82	–
323.15 K, x1 = 0.0203	1013.81	–
323.15 K, x1 = 0.0406	1032.93	–
323.15 K, x1 = 0.0605	1046.99	–
323.15 K, x1 = 0.0806	1057.73	–
323.15 K, x1 = 0.1024	1066.59	–
323.15 K, x1 = 0.1511	1079.35	–
323.15 K, x1 = 0.2006	1086.52	–
323.15 K, x1 = 0.25	1090.71	–
323.15 K, x1 = 0.3012	1093.38	–
323.15 K, x1 = 0.4024	1096.31	–
323.15 K, x1 = 0.4964	1097.75	–
323.15 K, x1 = 0.5985	1098.68	–
323.15 K, x1 = 0.7018	1099.24	–
323.15 K, x1 = 0.759	1099.44	–
323.15 K, x1 = 0.8201	1099.6	–
323.15 K, x1 = 0.8353	1099.63	–
323.15 K, x1 = 0.8804	1099.72	–
323.15 K, x1 = 0.9237	1099.82	–
323.15 K, x1 = 0.9719	1099.94	–
323.15 K, x1 = 1	1100.02	–
328.15 K, x1 = 0.0116	1001.24	–
328.15 K, x1 = 0.0203	1011.07	–
328.15 K, x1 = 0.0406	1029.83	–
328.15 K, x1 = 0.0605	1043.61	–
328.15 K, x1 = 0.0806	1054.13	–
328.15 K, x1 = 0.1024	1062.83	–
328.15 K, x1 = 0.1511	1075.4	–
328.15 K, x1 = 0.2006	1082.51	–
328.15 K, x1 = 0.25	1086.67	–
328.15 K, x1 = 0.3012	1089.35	–
328.15 K, x1 = 0.4024	1092.28	–
328.15 K, x1 = 0.4964	1093.75	–
328.15 K, x1 = 0.5985	1094.69	–
328.15 K, x1 = 0.7018	1095.26	–
328.15 K, x1 = 0.759	1095.46	–
328.15 K, x1 = 0.8201	1095.62	–
328.15 K, x1 = 0.8353	1095.65	–
328.15 K, x1 = 0.8804	1095.74	–
328.15 K, x1 = 0.9237	1095.84	–
328.15 K, x1 = 0.9719	1095.95	–
328.15 K, x1 = 1	1096.04	–
333.15 K, x1 = 0.0116	998.51	–
333.15 K, x1 = 0.0203	1008.17	–
333.15 K, x1 = 0.0406	1026.6	–
333.15 K, x1 = 0.0605	1040.12	–
333.15 K, x1 = 0.0806	1050.46	–
333.15 K, x1 = 0.1024	1059.02	–
333.15 K, x1 = 0.1511	1071.42	–
333.15 K, x1 = 0.2006	1078.47	–
333.15 K, x1 = 0.25	1082.62	–
333.15 K, x1 = 0.3012	1085.29	–
333.15 K, x1 = 0.4024	1088.24	–
333.15 K, x1 = 0.4964	1089.72	–
333.15 K, x1 = 0.5985	1090.68	–
333.15 K, x1 = 0.7018	1091.26	–
333.15 K, x1 = 0.759	1091.46	–
333.15 K, x1 = 0.8201	1091.62	–
333.15 K, x1 = 0.8353	1091.66	–
333.15 K, x1 = 0.8804	1091.76	–
333.15 K, x1 = 0.9237	1091.85	–
333.15 K, x1 = 0.9719	1091.96	–
333.15 K, x1 = 1	1092.05	–
